Laboratory results published in patent US20220274983A1, “JAK KINASE INHIBITOR AND USE THEREOF” (JIANGSU CAREPHAR PHARMACEUTICAL CO., LTD., priority 2019, published 2022).

By UniProt entry, the sequences of proteins in these tests, tags left out.
UniProt P29597, whole entry, species assumed: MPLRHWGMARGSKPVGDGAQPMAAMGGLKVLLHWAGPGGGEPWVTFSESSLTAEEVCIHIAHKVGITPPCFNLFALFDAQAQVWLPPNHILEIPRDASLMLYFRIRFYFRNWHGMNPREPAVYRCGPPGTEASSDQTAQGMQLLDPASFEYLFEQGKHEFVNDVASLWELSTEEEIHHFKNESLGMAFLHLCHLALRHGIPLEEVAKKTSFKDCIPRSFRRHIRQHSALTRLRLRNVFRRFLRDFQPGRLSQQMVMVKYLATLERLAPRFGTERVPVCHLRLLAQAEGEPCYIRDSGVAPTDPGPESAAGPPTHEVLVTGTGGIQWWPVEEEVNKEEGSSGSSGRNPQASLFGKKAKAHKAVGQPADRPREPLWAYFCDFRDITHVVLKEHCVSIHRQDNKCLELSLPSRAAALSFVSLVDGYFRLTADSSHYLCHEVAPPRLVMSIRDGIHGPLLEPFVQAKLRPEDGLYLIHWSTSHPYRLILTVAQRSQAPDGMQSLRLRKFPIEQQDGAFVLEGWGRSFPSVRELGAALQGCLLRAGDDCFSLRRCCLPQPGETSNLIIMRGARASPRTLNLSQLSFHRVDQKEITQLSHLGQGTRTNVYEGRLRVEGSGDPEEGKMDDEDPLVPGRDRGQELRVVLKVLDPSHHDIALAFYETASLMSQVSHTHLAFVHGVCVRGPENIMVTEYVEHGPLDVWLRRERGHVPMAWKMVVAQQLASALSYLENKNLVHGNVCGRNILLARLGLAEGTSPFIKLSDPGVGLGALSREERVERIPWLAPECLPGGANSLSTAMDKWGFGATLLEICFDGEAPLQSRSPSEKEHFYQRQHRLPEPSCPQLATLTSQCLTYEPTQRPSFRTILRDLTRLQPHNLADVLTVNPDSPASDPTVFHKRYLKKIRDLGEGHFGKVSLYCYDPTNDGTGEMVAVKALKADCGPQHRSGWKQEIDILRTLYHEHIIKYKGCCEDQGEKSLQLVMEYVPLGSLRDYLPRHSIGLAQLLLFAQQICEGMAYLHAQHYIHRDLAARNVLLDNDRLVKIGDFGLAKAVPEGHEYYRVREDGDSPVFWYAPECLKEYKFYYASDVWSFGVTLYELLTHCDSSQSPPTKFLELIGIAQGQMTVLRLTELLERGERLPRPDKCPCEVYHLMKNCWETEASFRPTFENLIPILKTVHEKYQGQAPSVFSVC

Target: TYK2 (Homo sapiens, UniProt P29597)
Assay: JAK kinase inhibitory activity, HTRF biochemical assay
Protocol: The compounds of the above embodiments were applied to the detection and screening of JAK kinase inhibitory activity.
A corresponding volume of DMSO was added to each well of a first 96-well plate. 20-30 μL of 100-200 μM stock solution of different test compounds were added to each well. The mixture was shaken and mixed for 3 min. All of the compounds were subjected to 3× serial dilution. 60-80 μL Kinase buffer was added to each well of a second 96-well plate, and 1-2 μL of the solution taken from each well of the first 96-well plate was added to the corresponding well of the second 96-well plate. The mixture was shaken and mixed for 3 min. 5 μL of compound dilution taken from each well of the second compound dilution plate was transferred to the corresponding well of a 384-well test plate. 1-2 μL TK Substrate-biotin was added to each well of the test plate. 1-2 μL of enzyme mixture was added to each well. At the same time, a blank well without enzyme was set. 1-2 μL of ATP solution was added to each well, the plate was sealed and reacted at room temperature. The reaction time was as follows: JAK1: 2 h, JAK2: 30 min, JAK3: 30 min, and TYK2: 50 min. […]
The percentage of inhibition was calculated based on the following formula: […]

O=C(Nc1nc2cccc(-c3ccc(CN4CCS(=O)(=O)CC4)cc3)n2n1)C1CC1 [Filgotinib, reference compound]
pIC50: < 6.30

pIC50: −log10 of the molar value.
